The text below walks through data of US20080227100A1, “METHOD FOR ESTIMATING hERG INHIBITION OF DRUG CANDIDATES USING MULTIVARIATE PROPERTY AND PHARMACOPHORE SAR” (priority 2007, published 2008).

By UniProt entry, the sequences of proteins in these tests, tags left out. Where a name states a change or a piece, a line headed by the entry shows the natural chain unless it says otherwise.
UniProt Q12809: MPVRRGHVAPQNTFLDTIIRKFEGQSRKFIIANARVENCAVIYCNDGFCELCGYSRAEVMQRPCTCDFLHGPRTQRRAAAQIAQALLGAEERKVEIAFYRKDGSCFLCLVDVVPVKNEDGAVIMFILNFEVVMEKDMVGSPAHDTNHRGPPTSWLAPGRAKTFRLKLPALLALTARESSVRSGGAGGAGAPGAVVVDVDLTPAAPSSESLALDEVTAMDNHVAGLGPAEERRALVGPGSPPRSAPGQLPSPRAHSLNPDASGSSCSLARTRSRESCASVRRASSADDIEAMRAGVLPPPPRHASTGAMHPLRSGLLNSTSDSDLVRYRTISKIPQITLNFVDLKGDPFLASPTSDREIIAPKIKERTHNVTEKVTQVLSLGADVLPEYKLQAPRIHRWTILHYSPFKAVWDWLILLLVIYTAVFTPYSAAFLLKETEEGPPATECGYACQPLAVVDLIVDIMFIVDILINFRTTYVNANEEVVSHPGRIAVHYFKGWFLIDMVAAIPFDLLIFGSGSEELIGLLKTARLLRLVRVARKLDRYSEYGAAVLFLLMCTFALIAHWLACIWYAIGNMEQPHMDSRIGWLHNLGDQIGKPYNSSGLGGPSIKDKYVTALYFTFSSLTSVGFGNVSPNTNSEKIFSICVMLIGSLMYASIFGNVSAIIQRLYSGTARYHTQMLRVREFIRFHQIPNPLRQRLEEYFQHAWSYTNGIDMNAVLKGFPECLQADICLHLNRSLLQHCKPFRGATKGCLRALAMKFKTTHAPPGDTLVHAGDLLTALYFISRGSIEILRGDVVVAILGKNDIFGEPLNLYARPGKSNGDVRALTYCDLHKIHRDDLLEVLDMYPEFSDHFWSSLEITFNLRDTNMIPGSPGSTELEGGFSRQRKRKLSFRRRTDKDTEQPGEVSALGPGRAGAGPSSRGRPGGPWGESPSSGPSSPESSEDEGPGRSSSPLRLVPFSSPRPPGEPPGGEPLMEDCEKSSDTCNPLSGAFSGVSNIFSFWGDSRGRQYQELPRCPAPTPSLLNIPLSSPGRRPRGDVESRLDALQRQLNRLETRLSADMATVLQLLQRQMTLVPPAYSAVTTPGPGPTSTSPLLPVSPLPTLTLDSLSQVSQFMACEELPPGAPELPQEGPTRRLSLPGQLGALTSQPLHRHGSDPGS

The target of this data set is hERG channel (Homo sapiens, UniProt Q12809).

With `COc1cc(N)c(Cl)cc1C(=O)NC1CCN(CCCOc2ccc(F)cc2)CC1OC` (stereo not shown) [cisapride], the “inhibition of recombinant hERG currents” value was “inhibit recombinant hERG currents”.
